## CycPeptMPDB entries from one study

Collected by the curators of CycPeptMPDB (Li et al. 2023) from Townsend et al. 2020, doi:10.26434/chemrxiv.13335941.v1.

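The data file gives no further conditions (lipid, pH, time, direction or concentration), and values from different papers need not be comparable. Other peptides of the study may be missing here. Entries at the database's floor value (log10 P of -10) are not listed.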

PAMPA is the parallel artificial membrane permeability assay, which has no cells and reads passive diffusion. Permeability is given as log10 of P in cm/s; higher (less negative) is more permeable.

PAMPA (log10 cm/s),SMILES
-6.28,CCCN1CC(=O)N(Cc2ccccc2)CC(=O)N(Cc2ccccc2)CC(=O)N2CCC[C@H]2C(=O)N(Cc2ccccc2)CC(=O)N[C@@H](Cc2ccccc2)C(=O)N2CCC[C@@H]2C1=O
-6.33,CC(C)C[C@H]1NC(=O)[C@@H]2CCCN2C(=O)C[C@H](Cc2ccccc2)NC(=O)CN(Cc2ccccc2)C(=O)[C@H](C)N(C)C(=O)[C@H]2CCCN2C(=O)[C@H](Cc2ccccc2)NC1=O
-5.82,CCCN1CC(=O)N(Cc2ccccc2)CC(=O)N[C@@H](CC(C)C)C(=O)N2CCC[C@@H]2C(=O)N[C@H](CC(C)C)C(=O)N[C@@H](Cc2ccccc2)C(=O)N2CCC[C@@H]2C1=O
-5.87,CC(C)C[C@@H]1NC(=O)C[C@H](Cc2ccccc2)NC(=O)[C@@H]2CCCN2C(=O)[C@H](Cc2ccccc2)NC(=O)CN(Cc2ccccc2)C(=O)[C@H]2CCCN2C(=O)CN(Cc2ccccc2)C1=O
-5.58,CCCN1CC(=O)N(C)[C@@H](CC(C)C)C(=O)N(Cc2ccccc2)CC(=O)N2CCC[C@H]2C(=O)N(Cc2ccccc2)CC(=O)N[C@@H](Cc2ccccc2)C1=O
-6.07,CC(C)C[C@H]1NC(=O)[C@@H]2CCCN2C(=O)C[C@H](Cc2ccccc2)NC(=O)CN(Cc2ccccc2)C(=O)[C@H](C)N(C)C(=O)[C@H](Cc2ccccc2)NC1=O
-6.11,C[C@@H]1C(=O)N(Cc2ccccc2)CC(=O)N(Cc2ccccc2)CC(=O)N2CCC[C@H]2C(=O)N(Cc2ccccc2)CC(=O)N[C@@H](Cc2ccccc2)C(=O)N1C
-6.28,C[C@@H]1C(=O)N(Cc2ccccc2)CC(=O)N(Cc2ccccc2)CC(=O)N2CCC[C@@H]2C(=O)N(Cc2ccccc2)CC(=O)N[C@@H](Cc2ccccc2)C(=O)N1C
-5.93,CC(C)C[C@H]1NC(=O)[C@@H]2CCCN2C(=O)CN(Cc2ccccc2)C(=O)[C@H](CC(C)C)N(C)C(=O)C[C@H](Cc2ccccc2)NC(=O)[C@H](Cc2ccccc2)NC1=O
-5.72,CCCN1CC(=O)N(Cc2ccccc2)CC(=O)N[C@@H](Cc2ccccc2)CC(=O)N2CCC[C@H]2C(=O)N(Cc2ccccc2)CC(=O)N[C@@H](Cc2ccccc2)C(=O)N2CCC[C@H]2C1=O
-5.89,CC(C)C[C@H]1C(=O)N2CCC[C@H]2C(=O)N(Cc2ccccc2)CC(=O)N[C@@H](Cc2ccccc2)C(=O)N2CCC[C@@H]2C(=O)N[C@@H](C)C(=O)N(Cc2ccccc2)CC(=O)N1C
-6.19,C[C@H]1NC(=O)[C@H]2CCCN2C(=O)[C@H](Cc2ccccc2)NC(=O)CN(Cc2ccccc2)C(=O)[C@@H]2CCCN2C(=O)CN(Cc2ccccc2)C(=O)CN(Cc2ccccc2)C1=O
-5.91,CCCN1CC(=O)N(Cc2ccccc2)CC(=O)N[C@@H](Cc2ccccc2)CC(=O)N2CCC[C@H]2C(=O)N(C)[C@H](CC(C)C)C(=O)N[C@@H](Cc2ccccc2)C(=O)N2CCC[C@@H]2C1=O
-5.53,CC(C)C[C@@H]1C(=O)N[C@@H](Cc2ccccc2)CC(=O)N2CCC[C@H]2C(=O)N(Cc2ccccc2)CC(=O)N[C@@H](Cc2ccccc2)C(=O)N[C@H](C)C(=O)N1C
-4.83,CCCN1CC(=O)N[C@H](CC(C)C)C(=O)N(C)[C@H](CC(C)C)C(=O)N2CCC[C@H]2C(=O)N(C)[C@H](CC(C)C)C(=O)N[C@@H](Cc2ccccc2)C1=O
-6.28,CCCN1CC(=O)N(Cc2ccccc2)CC(=O)N[C@@H](Cc2ccccc2)CC(=O)N2CCC[C@H]2C(=O)N[C@@H](CC(C)C)C(=O)N[C@@H](Cc2ccccc2)C(=O)N2CCC[C@H]2C1=O

Extract of 2 entries:

{"smiles": "CC(C)C[C@H]1NC(=O)[C@@H]2CCCN2C(=O)C[C@H](Cc2ccccc2)NC(=O)CN(Cc2ccccc2)C(=O)[C@H](C)N(C)C(=O)[C@H]2CCCN2C(=O)[C@H](Cc2ccccc2)NC1=O", "PAMPA (log10 cm/s)": "-6.33"}
{"smiles": "CCCN1CC(=O)N(Cc2ccccc2)CC(=O)N[C@@H](Cc2ccccc2)CC(=O)N2CCC[C@H]2C(=O)N(C)[C@H](CC(C)C)C(=O)N[C@@H](Cc2ccccc2)C(=O)N2CCC[C@@H]2C1=O", "PAMPA (log10 cm/s)": "-5.91"}